Measurements as given in patent US20040171566A1, “Antisense modulation of p38 mitogen activated protein kinase expression” (priority 1999, published 2004).

How the values were obtained:
human p38β mRNA = assay: Human p38β mRNA expression in T-24 cells; details: control oligonucleotide, no dose given
human p38α mRNA = assay: Human p38α mRNA expression in T-24 cells; details: control oligonucleotide, dose not given

Sequence | % p38β mRNA Expression (human p38β mRNA) [%] | % p38α mRNA Expression (human p38α mRNA) [%]
GTTCGATCGGCTCGTGTCGA | 100 | –
TTATCCTAGCTTAGACCTAT | – | 94
